According to patent US20220370454A1, “METHODS FOR TREATING CENTRAL NERVOUS SYSTEM DISORDERS WITH MUSCARINIC RECEPTOR ACTIVATION AND ANTIPSYCHOTICS” (Karuna Therapeutics, Inc., priority 2021, published 2022):

Assay: Brain and plasma drug exposure collected after the LMA study
Format: in vivo, mice
From the text: After the experiment, plasma and brain tissue were collected to determine drug exposure.

With Cc1nc2n(c(=O)c1CCN1CCC(c3noc4cc(F)ccc34)CC1)CCCC2 [Risperidone, risperidone] the “Risperidone plasma levels with xanomeline” value (0.01 mg/kg risperidone dose) was “does not alter”, the “Brain level of the named substance” value (treatment: MK-801 0.3 + risperidone 0.001 mg/kg) was “BLD (BLD=below level of detection; 0.2 ng/mL for risperidone and MK-801; 0.4 ng/mL for xanomeline)” and the “Brain level of the named substance” value (treatment: MK-801 0.3 + risperidone 0.003 mg/kg) was “BLD (BLD=below level of detection; 0.2 ng/mL for risperidone and MK-801; 0.4 ng/mL for xanomeline)”. For the same molecule, the “Brain level of the named substance” value (treatment: MK-801 0.3 + risperidone 0.01 mg/kg) was “BLD (BLD=below level of detection; 0.2 ng/mL for risperidone and MK-801; 0.4 ng/mL for xanomeline)”, the “Brain level of the named substance” value (treatment: MK-801 0.3 + risperidone 0.1 mg/kg, * MK-801 elevated vs MK-801 alone) was 22.9 ± 3.0 ng/g and the “Brain level of the named substance” value (treatment: MK-801 0.3 + risperidone 0.001 + xanomeline 1 mg/kg) was “BLD (BLD=below level of detection; 0.2 ng/mL for risperidone and MK-801; 0.4 ng/mL for xanomeline)”. For the same molecule, the “Brain level of the named substance” value (treatment: MK-801 0.3 + risperidone 0.003 + xanomeline 1 mg/kg) was “BLD (BLD=below level of detection; 0.2 ng/mL for risperidone and MK-801; 0.4 ng/mL for xanomeline)” and the “Brain level of the named substance” value (treatment: MK-801 0.3 + risperidone 0.01 + xanomeline 1 mg/kg, * p<0.05 vs xanomeline alone) was “BLD (BLD=below level of detection; 0.2 ng/mL for risperidone and MK-801; 0.4 ng/mL for xanomeline)”.
